Only a part is listed here, and it is no random draw. Calls of active or inactive are those of the source.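 The calls were made as follows: active = B-score of the integrated calcium signal more than 4 SD below the library mean, with starting fluorescence not abnormally high; inactive = the rest.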

This assay in a line: enhancers of RGS4 function in calcium signaling – cell-based, HEK293 M3R inducible RGS4, calcium flux, primary screen (AID 463111).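 As to B-score: negative B-score means reduced calcium response which marks RGS4 activation or potentiation.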 Conditions: HEK293 M3R/inducible RGS4, carbachol calcium flux Fluo4, at 10 µM; active compounds read low. The method, boiled down:
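test system = M3R-expressing HEK293 line, RGS4 induced by doxycycline | probe or stimulus = carbachol at ECmax as muscarinic agonist stimulus | timing = dye loading 30 min 37 °C, buffer rest 30 min RT | signal = calcium dye Fluo4 fluorescence | evaluation = B score from integrated fluorescence ratio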
On the technique in general: A change in cytosolic calcium serves as a functional read-out for many receptors and channels.
For the compound `CP(=O)(Nc1ccc(Cl)cc1Cl)Oc1ccccc1` (stereo not drawn), the outcome was inactive. Still for that read-out and setting: as for `CP(=O)(OCCOc1ccccc1)OCCOc1ccccc1`, the entry is “inactive”; as for `Nc1cccc2ccc([As](=O)(O)O)cc12`, “inactive”; as for `CCN(N=Nc1nonc1N)c1nonc1N`, “inactive”.

In the case of `O=[N+]([O-])c1cc([N+](=O)[O-])c(CCN2CCOCC2)c([N+](=O)[O-])c1`, the outcome was inactive. The same measure, in the same setting: as for `Cc1nc2ccc3ccccc3c2o1.O=[N+]([O-])c1cc([N+](=O)[O-])c(O)c([N+](=O)[O-])c1`, the entry is “inactive”. Same read-out and setting: under `COc1ccc(OP(C)(=O)Nc2ccccc2Br)cc1` (stereo not drawn) stands “inactive”. Same read-out and setting: under `COc1ccccc1OP(C)(=O)Nc1ccc(C)c(C)c1` (stereo not drawn) stands “inactive”. As to `Cc1ccc(NP(=O)(Oc2ccccc2F)Oc2ccccc2F)nc1`, the outcome was inactive. On to `CN(C(=O)Cc1ccc(Cl)c(Cl)c1)[C@H]1CCCC[C@@H]1N1CCCC1`, for which the result was inactive. Still for that read-out and setting: under `Cc1cc(SC(NC(=O)c2ccc(F)cc2)C(Cl)(Cl)Cl)ncn1` (stereo not drawn) stands “inactive”; under `CCOP(=O)(Nc1ccccc1)OCC`, “inactive”.

On to `O=P(Nc1nc2ccc(Cl)cc2s1)(c1ccccc1)c1ccccc1`, for which the outcome was inactive. Same read-out and setting: as for `Cc1cc(C)cc(OP(C)(=O)Nc2cccc(C(F)(F)F)c2)c1` (stereo not drawn), the entry is “inactive”.

Take `CC(=O)Nc1ccc([As](=O)(O)O)cc1`: the outcome was inactive. Same read-out and setting: as for `O=C(O)c1ccccc1[As](=O)(O)O`, the entry is “inactive”; as for `CCc1ccc(OP(C)(=O)O)cc1`, “inactive”; as for `COc1ccccc1OP(C)(=O)Nc1ccc(C)cc1C` (stereo not drawn), “inactive”. On the same count and under the same terms, as for `CP(=O)(Nc1ccccn1)Oc1ccccc1` (stereo not drawn), the entry is “inactive”; as for `O=C(NC(Sc1ccncn1)C(Cl)(Cl)Cl)c1ccccc1` (stereo not drawn), “inactive”; as for `Oc1ccccc1CNc1ccccn1`, “inactive”. Still for that read-out and setting: as for `Cc1c(NP(C)(=O)Oc2ccc(C(C)C)cc2)c(=O)n(-c2ccccc2)n1C` (stereo not drawn), the entry is “inactive”; as for `Nc1cc(N)c2nonc2c1[N+](=O)[O-]`, “inactive”. In the case of `CC(C)CC(=O)NC(Sc1ccc(Cl)cc1)C(Cl)(Cl)Cl` (stereo not drawn), the result was inactive. The same measure, in the same setting: as for `O=[N+]([O-])c1cc([N+](=O)[O-])c(Nc2ccccn2)c([N+](=O)[O-])c1`, the entry is “inactive”. The same measure, in the same setting: under `Clc1ccc(Cl)c(NC2=NCC(CBr)S2)c1` (stereo not drawn) stands “inactive”. The same measure, in the same setting: under `CN(C)CCOC(=O)C(O)(c1ccccc1)C1CCCC1` (stereo not drawn) stands “inactive”. `Cc1ccc(OP(=O)(Nc2nccs2)Oc2ccc(C)cc2)cc1`: the result was inactive. As for `COc1ccccc1OP(=O)(Nc1ccc(C)cn1)Oc1ccccc1OC`, the result was inactive.

As to `COc1ccc(OP(C)(=O)Nc2ccccn2)cc1` (stereo not drawn), the result was inactive. The same measure, in the same setting: as for `Cc1ccc(N/C(=N/P(=O)(N2CCOCC2)N2CCOCC2)N2CCOCC2)cc1`, the entry is “inactive”; as for `COc1ccccc1OP(C)(=O)Nc1ccc(Br)cc1` (stereo not drawn), “inactive”; as for `NC(=O)c1cc([N+](=O)[O-])cc([N+](=O)[O-])c1N`, “inactive”. Take `CC1CCN(C(=O)Oc2c(Cl)cc(Cl)c3cccnc23)CC1`: the result was inactive.

For `CN(C)C(=O)OCCc1n(C)cc[n+]1C`, the result was inactive. `CN(C)C(=O)c1c([N+](=O)[O-])cc([N+](=O)[O-])cc1[N+](=O)[O-]`: the result was inactive. On the same count and under the same terms, as for `CC(C)=N/N=C(\N)N[N+](=O)[O-]`, the entry is “inactive”. For the compound `CP(=O)(Nc1ccc(Cl)cc1)Oc1ccc(F)cc1` (stereo not drawn), the outcome was inactive. Same read-out and setting: as for `CCN(/C(=N/P(=O)(N1CCOCC1)N1CCOCC1)N1CCOCC1)c1ccc(OC)cc1`, the entry is “inactive”; as for `C[N+]1=C2C=CC=CC=C2SC12C([N+](=O)[O-])=CC([N+](=O)[O-])=C[C-]2[N+](=O)[O-]` (stereo not drawn), “inactive”; as for `COc1ccccc1OP(C)(=O)Nc1ccccc1Br` (stereo not drawn), “inactive”. On to `CC(C)(C)c1ccc(OP(C)(=O)O)cc1`, for which the outcome was inactive. Take `Nc1ccc([As](=O)(O)c2ccc(N)cc2)cc1`: the outcome was inactive. Same read-out and setting: under `CCc1ccc(OP(C)(=O)Nc2cccnc2)cc1` (stereo not drawn) stands “inactive”.

For `CCc1nc2c(n1)c1c(non1O)c1c2no[n+]1[O-]`, the outcome was inactive.

On to `O=[N+]([O-])c1cc([N+](=O)[O-])c(CCNc2ccccc2)c([N+](=O)[O-])c1`, for which the outcome was inactive. The same measure, in the same setting: as for `Cc1ccc(NP(=O)(Oc2ccccc2)Oc2ccccc2)nc1`, the entry is “inactive”; as for `CP(=O)(Oc1ccccc1)N1CCOC1=O` (stereo not drawn), “inactive”. For the compound `O=C(OCCCN1CCCC1)C(O)(c1ccccc1)C1CCCCC1` (stereo not drawn), the B-score was active: -9.29. Consider `O=[N+]([O-])c1cccc2n[nH]nc12`, for which the outcome was inactive. Same read-out and setting: under `CC(=O)N1C2C3N(C(C)=O)C1C1N(C(C)=O)C(C(N1C(C)=O)N3C(C)=O)N2C(C)=O` stands “inactive”; under `COc1ccccc1OP(C)(=O)Nc1c(C)n(C)n(-c2ccccc2)c1=O` (stereo not drawn), “inactive”. Same read-out and setting: as for `COc1ccc(C2=NCC(CBr)S2)cc1` (stereo not drawn), the entry is “inactive”; as for `COc1ccc(OP(C)(=O)Nc2ccc(Br)cc2)cc1` (stereo not drawn), “inactive”; as for `CCN(CC)CC(O)COC(=O)C(O)(c1ccccc1)C1CCCCC1` (stereo not drawn), “inactive”.

`O=C(O)CNc1ccc([As](=O)(O)O)cc1`: the outcome was inactive. Still for that read-out and setting: under `O=[N+]([O-])c1cccc(NC2=NCC(CBr)S2)c1` (stereo not drawn) stands “inactive”; under `O=[N+]([O-])c1ncn(CCn2ncnc2[N+](=O)[O-])n1`, “inactive”; under `CC(C)(C)C(=O)NC(Sc1ccncn1)C(Cl)(Cl)Cl` (stereo not drawn), “inactive”.

Take `CP(=O)(OC12CC3CC(CC(C3)C1)C2)OC12CC3CC(CC(C3)C1)C2`: the outcome was inactive. Same read-out and setting: as for `O=C(Nc1cc([As](=O)(O)O)ccc1O)c1ccccc1`, the entry is “inactive”. Still for that read-out and setting: as for `CCOC(=O)c1ccc(NP(C)(=O)Oc2ccc(Cl)cc2)cc1` (stereo not drawn), the entry is “inactive”.

Take `Nc1ccc2c(ccc3cccnc32)n1.O=[N+]([O-])c1cc([N+](=O)[O-])c(O)c([N+](=O)[O-])c1`: the result was inactive.

As to `C(Cc1nn[nH]n1)Cc1nn[nH]n1`, the result was inactive. Still for that read-out and setting: as for `Nc1ccc([As](=O)(O)c2ccc([N+](=O)[O-])cc2)cc1`, the entry is “inactive”; as for `O=[N+]([O-])c1cc([N+](=O)[O-])c(NCC2CCS(=O)(=O)C2)c([N+](=O)[O-])c1` (stereo not drawn), “inactive”. On the same count and under the same terms, under `Cc1cc(-c2cccc3ccccc23)c(C)cn1.O=[N+]([O-])c1cc([N+](=O)[O-])c(O)c([N+](=O)[O-])c1` stands “inactive”; under `O=[As](O)(c1ccccc1)c1ccc(O)cc1`, “inactive”; under `O=[N+]([O-])c1ccc(O)c(/C=N/Nc2ccc([N+](=O)[O-])cc2[N+](=O)[O-])c1`, “inactive”. Same read-out and setting: as for `O=[N+]([O-])c1ncn(CCn2cnc([N+](=O)[O-])n2)n1`, the entry is “inactive”; as for `O=[N+]([O-])c1ccc(OP2(=O)COCCO2)cc1` (stereo not drawn), “inactive”; as for `CC(=O)NC(SC(=S)N(C)C)C(Cl)(Cl)Cl` (stereo not drawn), “inactive”.

Regarding `COc1ccc(NP(C)(=O)Oc2ccccc2OC)cc1` (stereo not drawn), the result was inactive.

(Values after PubChem BioAssay AID463111 (Johns Hopkins Ion Channel Center, 2010).)
